# Measured values: PMC12021451 (Planta Medica, 2025)
# Test: blood-to-plasma concentration ratio
# Format: in vitro ADME, human
# Conditions: range of 4 to 1000 ng/mL
substance,measurement,value
Retrorsine,Effect of the compound concentration on the Rb value,no concentration dependency was observed
